These are literature values, as cited in PMC3190643 (2011).

Data set [1] deals with MMP-9. Particulars: read-out: Ki, MMP-9; reported earlier; cited from earlier work.
The target in data set [2] is MMP-3. As to conditions: read-out: Ki, MMP-3; reported earlier; cited from earlier work.
Data set [3] deals with MMP-14. Particulars: read-out: Ki, MMP-14; reported earlier; cited from earlier work.
For data set [4], the target named is MMP-1. As to conditions: read-out: Ki, MMP-1; reported earlier; cited from earlier work.

For orientation: Ki means a dissociation constant, usually derived from enzyme kinetics or from competition with a known ligand. For the molecule `CC(=O)Nc1ccc(Oc2ccc(S(=O)(=O)CC3CS3)cc2)cc1` (stereo not shown) [Compound M3], the Ki in data set [1] is 0.13 ± 0.01 µM; in data set [2], 12.2 ± 0.9 µM; in data set [3], 0.68 ± 0.05 µM; in data set [4], 5.4 ± 0.4 µM.
